From US20070066561A1, “Drug delivery and targeting with vitamin B12 conjugates” (New York University, priority 2002, published 2007)

Assays:
Assay in all cases: Cytotoxicity against human cell lines grown in culture, MTT assay
Assay type in all cases: cell-based
Details in all cases: 72 hr continuous incubation, 5% human serum, relative cell growth by MTT, means of duplicate experiments
[1] = test system: HL60 Promyelocytic leukemia
Excerpt: (§1) The data below are means of duplicate experiments with similar results.

K562 Erythroleukemia = test system: K562 Erythroleukemia
Excerpt: as §1

KARPAS-291 Lymphoma = test system: KARPAS-291 Lymphoma
Excerpt: as §1

## B12-P-Hippuric acid-4,7,10-trioxa-1,13-tridecanediamine e-cyanocobalamin monocarboxylic acid conjugate [B12 P-Hippuric acid]
[1]
  Cytotoxicity, HL60 Promyelocytic leukemia: 245 ng/mL
K562 Erythroleukemia
  Cytotoxicity, K562 Erythroleukemia: 281 ng/mL
KARPAS-291 Lymphoma
  Cytotoxicity, KARPAS-291 Lymphoma: 270 ng/mL
